{"source": "patent US5077035A", "about": "“Radioiodinated benzovesamicol analogs for cholinergic nerve mapping” (priority 1990, dated 1991)", "origin": "cited, not measured here", "conditions": "single passage through the cerebral circulation; cited from earlier work"}
{"substance": "technetium-99m hexamethylpropylenamine oxime", "values": [{"measurement": "Blood-brain barrier passage and blood clearance (in words)", "result": "crosses the blood-brain barrier and is completely cleared from the blood in a single passage through the cerebral circulation"}]}
